## Ab-14 heavy chain CDR variants: yeast mating affinities

Binding partner: SARS-CoV-2 spike HR2 peptide, sequence PDVDLGDISGINAS.

The variants keep the light chain, the linker and the frameworks of Ab-14 (scFv order VH, three GGGGS repeats, VL).
VH: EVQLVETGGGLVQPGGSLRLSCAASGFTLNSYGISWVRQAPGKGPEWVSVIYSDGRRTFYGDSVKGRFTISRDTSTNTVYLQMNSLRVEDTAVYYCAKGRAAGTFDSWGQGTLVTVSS
VL: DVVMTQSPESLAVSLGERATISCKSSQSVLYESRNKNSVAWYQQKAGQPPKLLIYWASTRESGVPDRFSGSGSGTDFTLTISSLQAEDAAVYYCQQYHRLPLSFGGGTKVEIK

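The starting antibody came from a phage panning campaign against this peptide. These sequences belong to a second round, designed from the earlier measurements on random variants of the parent. Several design methods are mixed in this list. AlphaSeq pools MATa yeast showing the antibodies with MATalpha yeast showing the peptide. Mating (16 h, 30 °C) was followed by selection of diploids and sequencing of their barcodes. Read counts were normalised to the haploid input and turned into Kd by a linear fit to BCL2-family pairs of known affinity, for each replicate. Each pool was mated in six replicate cultures.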

The parent's heavy chain CDRs are GFTLNSYGIS, VIYSDGRRTFYGDSVK, GRAAGTFDS; each variant's own CDRs replace them letter for letter. Affinities are written as log10 Kd with Kd in nM; a lower number is a better binder. Averages over replicates are reported, and they cover detected replicates only. "no signal" marks a missing value. The strain was present, yet no cells mated with the target were sequenced in any replicate, which points to weak or no binding. In the paper, a design with two or fewer of six values counts as a poor binder.

"log10 Kd (nM), mean",seen in,CDR-H1,CDR-H2,CDR-H3
-0.80,6/6,GFDLNEYGIS,VIYADGKRTFYTDSVK,GQLAGTFDS
-0.21,6/6,GFDLNEYGIS,VIYADGKRTAYANSVK,GEVAGTFDT
-0.26,6/6,GFDLNEYGIS,VIYADGRRTAYADSVK,GQTAGTFDT
1.77,5/6,GFDLNSYGIS,VIYSDGRRTFYIDSVK,GKAAGTFDT
0.57,6/6,GFSLNEYGIS,VIYSDGRRTFYGDSVK,GRTAGTFDW
-0.49,6/6,GFDLNEYGIS,VIYADGRRTAYVDDVK,GNVAGTFDV
-0.32,6/6,GFDLEDYGIS,VIYADGRRTAYADSVK,GEIAGTFDV
2.35,1/6,GFTLNEYGIS,VIYSDGRRTFYGDSVK,GHAAGTFDL
-0.25,6/6,GFDLEEYGIS,VIYADGQRTAYADSVK,GENAGTFDV
-0.22,6/6,GFSLNEYGIS,VIYSDGRRTFYKDSVK,GRTAGTFDS
no signal,0/6,GFTLQSYGIS,VIYSDGRRTFYGDSVK,GKAAGKFDS
1.43,1/6,GFTLNSYGIS,VIYSDGRRTFYQDSVK,SRAAGTFDS
0.40,6/6,GFDLNSYGIS,VIYSDGRRTFYGDAVK,GRMAGTFDS
no signal,0/6,GFQINEYGIS,VIYADGLRTAYSQEVK,GQDTVNFVD
1.11,6/6,GFNLNSYGIS,VIYSDGRRTFYGDSVK,GRTAGTFDK
no signal,0/6,GFGMNSYGIS,VIYSDGRRTFYGDSVK,GEAAGTFDQ
-0.64,6/6,GFDLDEYGIS,VIYADGRRTAYVDSVK,GNQAGTFDV
1.76,1/6,GFTLNSYGIS,VIYSDGRRTFYGDSVV,GRATGTFDS
no signal,0/6,GFNLNSYGSS,VIYSDGLRTAYGDQVK,GRAAGWFDS
no signal,0/6,GFTLNSYGIS,VIYSDGHRTFYGDSVK,GVAAATFDS
1.21,6/6,GFSLNYYGIS,VIYSDGRRTFYGDSVK,GQTAGTFDS
no signal,0/6,GFSLNEYGIS,VIYSDGRRTFYGDSVK,GRAAGTFHK
no signal,0/6,GFTLNQYGIS,VLYSDGRRTFYSDSLK,GRAAGFFDS
1.00,3/6,GFSLNSYGIS,VIYSDGRRTFYADKVK,GRTAGTFDS
no signal,0/6,GFNLDEYGIS,VIYADGMRTAYGNAVK,GAVFGDLIS
2.16,3/6,GNVLNSYGIS,VIYSDGRRTFYGDSVK,GRAAGTFDS
3.14,3/6,GFTLNSYGIS,VIYADGRRTFYGDQVK,GRTAGTFKS
0.49,6/6,GFSLNSYGIS,VIYSDGRRTFYGDSVK,GSAAGTFDQ
-0.42,3/6,GFDLNEYGIS,VIYADGRRTFYTDSVK,GTSAGTFDV
0.12,6/6,GFDLNEYGIS,VIYADGRRTAYADDVK,GNQAGTFDI
1.37,6/6,GFSLNSYGIS,VIYSDGRRTFYKDKVK,GRTAGTFDS
0.03,4/6,GIDMQEYGIS,VIYADGLRAAYSDNFK,GGLGGTFDM
-0.15,6/6,GFDLNSYGIS,VIYSDGRRTFYQDSVK,GKTAGTFDS
1.01,6/6,GFSLNSYGIS,VIYSDGRRTFYGDSVK,GRYAGTFDS
-0.82,6/6,GFDLNEYGIS,VIYADGMRTAYADNVK,GQNAGTFDV
no signal,0/6,GFSLDEYGIS,VIYADGHRSFYLDSVK,GIYGNGLWF
0.77,1/6,GFDIEEYGIS,VIYADGQRTMYTPNVK,GNITGLAMT
-0.19,6/6,GFDLNEYGIS,VIYADGMRTAYSDKVK,GENAGTFDI
0.29,6/6,GFDLNSYGIS,VIYSDGRRTFYGDSVK,GLNAGTFDS
no signal,0/6,GFTLESYGIS,VIYSDGRRTFYGDCVK,GRAAGTFDS
no signal,0/6,GFSLNSYGIS,VIYSDGRRTFYGDSVK,GSTAGTFDW
0.44,5/6,GFELNDYGIS,VIYSDGRRTFYGDSVK,GERAGTFDS
1.98,2/6,GFTLSSYGIS,VIYRDGHRTFYGDSVK,GRAAGTFDS
no signal,0/6,GFNLNEYGIS,VIYADGLRSQYIDSVK,GNAFIFGLD
-0.06,5/6,GFTLNDYGIS,VIYSDGRRTFYGDSVK,GRHAGTFIS
0.17,6/6,GFELNSYGIS,VIYSDGRRTFYADQVK,GQTAGTFDS
-0.24,6/6,GFDLNEYGIS,VIYADGSRTAYSDSVK,GQNAGTFDI
-0.38,6/6,GFDLNEYGIS,VIYADGMRTSYADSVK,GNVAGTFDM
-0.16,6/6,GFDLNEYGIS,VIYADGIRTAYESNVK,GRNIINVLF
0.72,2/6,GFTLNEYGIS,VIYSDGRRTFYQDSVK,GFAAGTFDL
-0.96,6/6,GFDLDEYGIS,VIYADGMRTAYADTVK,GNVAGTFDL
0.39,6/6,GFNLNSYGIS,VIYSDGRRTFYGDSVK,GVEAGTFDS
-0.14,6/6,GFDLNEYGIS,VIYADGRRTFYADSVK,GNYAGTFFV
3.26,1/6,GFDINEYGIS,VIYADGIRKVYANKFK,GDSGGIINF
0.82,6/6,GFDLNSYGIS,VIYSDGRRTFYIDSVK,GWAAGTFDS
1.99,1/6,GFTLESYGIS,VIYADGRRTFYGDSVK,GRAAGTFTS
1.59,4/6,GFNLNSYGIS,VIYSDGFRTFYQDQVK,GEAAGTFDS
1.08,6/6,GFHLNSYGIS,VIYSDGRRTFYADSVK,GHAAGTFDS
no signal,0/6,GFTLNDYGIS,VIYSDGRRTFYHDSVK,GRAAGTFIS
-0.60,6/6,GFDLNEYGIS,VIYADGMRTFYADSVK,GSNAGTFDI
-0.45,6/6,GFNLNSYGIS,VIYSDGRRTFYGDSVK,GNEAGTFDT
no signal,0/6,GFTLNSYGIS,VIYSDGRRTFYSDSVK,GRAGGKFDS

The first 4 variants above that were never detected:

| CDR-H1 | CDR-H2 | CDR-H3 | log10 Kd (nM), mean | seen in |
|---|---|---|---|---|
| GFTLQSYGIS | VIYSDGRRTFYGDSVK | GKAAGKFDS | no signal | 0/6 |
| GFQINEYGIS | VIYADGLRTAYSQEVK | GQDTVNFVD | no signal | 0/6 |
| GFGMNSYGIS | VIYSDGRRTFYGDSVK | GEAAGTFDQ | no signal | 0/6 |
| GFNLNSYGSS | VIYSDGLRTAYGDQVK | GRAAGWFDS | no signal | 0/6 |

The parent sequence was in this pool as ten entries: three were never detected, three once, and four in most replicates, with averages from 0.34 to 2.37. Values of this round are not directly comparable with the first-round values of the same sequences. As a blank, each scFv also met three strains without target: over all heavy chain designs, 1% of these pairings were detected, typically at 2.08 and seldom below 0.84.

Source: Li et al. 2023 (doi:10.1038/s41467-023-39022-2), MIT Lincoln Laboratory and A-Alpha Bio; data file from the FLAb repository.